# Source: PMC8175309, “Translational CNS Steady-State Drug Disposition Model in Rats, Monkeys, and Humans for Quantitative Prediction of Brain-to-Plasma and Cerebrospinal Fluid-to-Plasma Unbound Concentration Ratios” (The AAPS Journal, 2021)
# By UniProt entry, the sequences of proteins in these tests, tags left out. Where a name states a change or a piece, a line headed by the entry shows the natural chain unless it says otherwise.
# UniProt Q9UNQ0: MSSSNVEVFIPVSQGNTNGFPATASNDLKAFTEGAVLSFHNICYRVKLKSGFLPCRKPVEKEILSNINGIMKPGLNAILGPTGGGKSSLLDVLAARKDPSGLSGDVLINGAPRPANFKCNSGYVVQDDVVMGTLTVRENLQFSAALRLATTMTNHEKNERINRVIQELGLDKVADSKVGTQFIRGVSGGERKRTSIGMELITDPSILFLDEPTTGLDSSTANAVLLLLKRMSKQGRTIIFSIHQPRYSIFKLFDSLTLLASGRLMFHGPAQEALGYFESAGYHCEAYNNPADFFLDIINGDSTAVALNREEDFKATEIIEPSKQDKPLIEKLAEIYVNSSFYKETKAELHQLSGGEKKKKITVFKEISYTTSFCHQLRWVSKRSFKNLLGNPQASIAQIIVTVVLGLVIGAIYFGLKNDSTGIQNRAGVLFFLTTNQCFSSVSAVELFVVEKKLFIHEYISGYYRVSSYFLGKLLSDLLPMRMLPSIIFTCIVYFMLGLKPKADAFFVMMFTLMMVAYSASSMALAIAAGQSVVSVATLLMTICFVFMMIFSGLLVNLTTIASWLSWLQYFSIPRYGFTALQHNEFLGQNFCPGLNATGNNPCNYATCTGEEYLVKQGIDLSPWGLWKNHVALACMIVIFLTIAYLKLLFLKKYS
# Biological target: BCRP (Homo sapiens, UniProt Q9UNQ0)
# Assay: Transcellular transport across MDCK-BCRP cell monolayers (efflux ratio)
# Settings: MDCK-BCRP cells, 1 μM, 1 h, Papp,BtoA/Papp,AtoB; *1 data internally obtained
row,Efflux ratio BCRP,SMILES
1,0.6,CN(C)CCCC1(c2ccc(F)cc2)OCc2cc(C#N)ccc21 (stereo not shown) [Citalopram]
2,38.0,CC(C)Nc1cccnc1N1CCN(C(=O)c2cc3cc(NS(C)(=O)=O)ccc3[nH]2)CC1 [Delavirdine]
3,26.0,O=c1c(-c2ccc(O)cc2)coc2cc(O)cc(O)c12 [Genistein]
4,1.0,O=C1NC(=O)C(c2ccccc2)(c2ccccc2)N1 [Phenytoin]
